# Antibody variant affinities, Ab-14 heavy chain, assay B

From the AlphaSeq antibody data of Li et al. 2023 (doi:10.1038/s41467-023-39022-2), copy in the FLAb collection.

The target is the same throughout: PDVDLGDISGINAS, from the HR2 region of SARS-CoV-2 spike.

Ab-14 is the parent antibody, in scFv form: VH, then a (GGGGS)3 linker, then VL. The light chain is unchanged in all variants.
VH: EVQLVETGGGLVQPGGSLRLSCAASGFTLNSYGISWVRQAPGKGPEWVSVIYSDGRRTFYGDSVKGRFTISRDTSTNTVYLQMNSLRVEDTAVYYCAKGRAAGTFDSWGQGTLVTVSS
VL: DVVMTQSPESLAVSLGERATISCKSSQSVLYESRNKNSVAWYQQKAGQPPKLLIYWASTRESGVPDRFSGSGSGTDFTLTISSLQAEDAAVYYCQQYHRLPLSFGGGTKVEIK

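The starting antibody came from a phage panning campaign against this peptide. This is the validation round: designs drawn from the data on random variants, tested in the same kind of assay. Several design methods are mixed in this list. AlphaSeq pools MATa yeast showing the antibodies with MATalpha yeast showing the peptide. Mating (16 h, 30 °C) was followed by selection of diploids and sequencing of their barcodes. A regression on co-assayed BCL2-family reference pairs converts the normalised counts of each replicate to an apparent Kd. Mating was done six times.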

Sequences are complete VH domains.
Kd is apparent (estimated from mating counts) and averaged on the log scale over replicates with a signal. Smaller is tighter.
"no signal" marks a missing value. The strain was present, yet no cells mated with the target were sequenced in any replicate, which points to weak or no binding.
The list is sorted by this average, lowest first, undetected variants last.

VH,apparent Kd,seen in
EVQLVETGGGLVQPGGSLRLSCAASGFDLNEYGISWVRQAPGKGPEWVSVIYADGMRTAYTDNVKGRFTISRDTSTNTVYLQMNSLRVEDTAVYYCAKGEVAGTFDQWGQGTLVTVSS,55 pM,6 of 6
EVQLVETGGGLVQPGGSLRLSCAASGFDLNEYGISWVRQAPGKGPEWVSVIYADGRRTFYSDSVKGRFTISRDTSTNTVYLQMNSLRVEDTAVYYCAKGAVAGTFDQWGQGTLVTVSS,170 pM,6 of 6
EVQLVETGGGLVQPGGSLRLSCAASGFDLDEYGISWVRQAPGKGPEWVSVIYADGMRTAYVDSVKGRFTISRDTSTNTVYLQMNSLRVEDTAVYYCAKGNVAGTFDVWGQGTLVTVSS,540 pM,6 of 6
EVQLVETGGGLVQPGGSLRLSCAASGFNLDEYGISWVRQAPGKGPEWVSVIYADGRRTFYQDSVKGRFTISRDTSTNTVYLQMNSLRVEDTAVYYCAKGEIAGTFDFWGQGTLVTVSS,610 pM,6 of 6
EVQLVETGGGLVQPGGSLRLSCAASGFDINEYGISWVRQAPGKGPEWVSVIYADGRRTFYTDSVKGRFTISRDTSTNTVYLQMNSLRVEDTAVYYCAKGGNAGTFDAWGQGTLVTVSS,620 pM,6 of 6
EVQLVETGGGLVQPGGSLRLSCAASGFELNSYGISWVRQAPGKGPEWVSVIYSDGRRTFYGDSVKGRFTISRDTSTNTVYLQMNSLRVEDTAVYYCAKGQAAGTFDVWGQGTLVTVSS,1.9 nM,6 of 6
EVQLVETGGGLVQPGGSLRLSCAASGFSLNNYGISWVRQAPGKGPEWVSVIYSDGRRTFYGDSVKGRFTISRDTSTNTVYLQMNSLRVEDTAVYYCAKGRIAGTFDSWGQGTLVTVSS,3.7 nM,6 of 6
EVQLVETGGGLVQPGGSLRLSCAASGFTLTEYGISWVRQAPGKGPEWVSVIYSDGRRTFYTDSVKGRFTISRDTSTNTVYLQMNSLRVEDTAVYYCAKGRFAGTFDSWGQGTLVTVSS,6.2 nM,6 of 6
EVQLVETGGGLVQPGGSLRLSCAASGFNLNNYGISWVRQAPGKGPEWVSVIYSDGRRTFYGDSVKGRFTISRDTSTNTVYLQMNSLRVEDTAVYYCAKGRNAGTFDSWGQGTLVTVSS,6.3 nM,6 of 6
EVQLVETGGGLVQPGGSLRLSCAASGFTLNDYGISWVRQAPGKGPEWVSVIYSDGRRTMYGDSVKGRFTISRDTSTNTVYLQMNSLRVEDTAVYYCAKGRCAGTFDSWGQGTLVTVSS,10 nM,6 of 6
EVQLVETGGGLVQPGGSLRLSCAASGFTLNEYGISWVRQAPGKGPEWVSVIYSDGRRTSYDDSVKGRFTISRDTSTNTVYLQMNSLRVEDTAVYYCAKGRAAGTFDSWGQGTLVTVSS,35 nM,6 of 6
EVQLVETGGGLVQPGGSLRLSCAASGFTLNSYGISWVRQAPGKGPEWVSVIYSDGRRTFYCDSVKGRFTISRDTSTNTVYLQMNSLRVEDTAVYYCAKGQTAGTFDSWGQGTLVTVSS,81 nM,6 of 6
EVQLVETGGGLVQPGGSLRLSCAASRFTLNSYGISWVRQAPGKGPEWVSVIYSDGRRTFYNDSVKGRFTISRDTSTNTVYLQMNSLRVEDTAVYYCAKGRAAGTFDSWGQGTLVTVSS,no signal,0 of 6
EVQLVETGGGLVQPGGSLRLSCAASGKDIDEYGISWVRQAPGKGPEWVSVIYADGRRTFVIDSVKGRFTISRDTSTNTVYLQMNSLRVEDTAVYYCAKGMNSGFVLAWGQGTLVTVSS,no signal,0 of 6
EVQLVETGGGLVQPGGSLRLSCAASGFTLNSYGISWVRQAPGKGPEWVSVIYADGRRTFYGDSVKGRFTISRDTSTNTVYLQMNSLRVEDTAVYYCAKGRVAGRFPSWGQGTLVTVSS,no signal,0 of 6
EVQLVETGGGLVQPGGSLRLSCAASGFTLNSYGISWVRQAPGKGPEWVSVIYSDGRRTFYGDSVKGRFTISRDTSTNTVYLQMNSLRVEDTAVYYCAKNMAAGTFDSWGQGTLVTVSS,no signal,0 of 6
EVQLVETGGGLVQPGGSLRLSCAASKFNLNSYGISWVRQAPGKGPEWVSVIYSDGRRTFYGDSVKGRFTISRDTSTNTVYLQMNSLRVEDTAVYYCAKGRQAGTFDSWGQGTLVTVSS,no signal,0 of 6
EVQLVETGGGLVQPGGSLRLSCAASGFSLDEFGISWVRQAPGKGPEWVSVIYADGMRSFYLDSVKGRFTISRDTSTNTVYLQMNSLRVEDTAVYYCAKGINGNVLWIWGQGTLVTVSS,no signal,0 of 6

Again, the first 2 entries without any signal:

VH,apparent Kd,seen in
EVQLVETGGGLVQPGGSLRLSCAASRFTLNSYGISWVRQAPGKGPEWVSVIYSDGRRTFYNDSVKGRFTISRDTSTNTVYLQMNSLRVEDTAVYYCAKGRAAGTFDSWGQGTLVTVSS,no signal,0 of 6
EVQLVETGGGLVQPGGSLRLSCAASGKDIDEYGISWVRQAPGKGPEWVSVIYADGRRTFVIDSVKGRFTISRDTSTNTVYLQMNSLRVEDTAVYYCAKGMNSGFVLAWGQGTLVTVSS,no signal,0 of 6

The parent sequence was in this pool as ten entries: three were never detected, three once, and four in most replicates, with averages from 2.2 nM to 240 nM.
The authors averaged sequences with at least three values out of six and counted those with two or fewer as poor binders.
The range of this assay differs from that of the first round, and the authors advise against merging the two.
Three control strains display no target. For all heavy chain designs, 1% of the pairings with them gave a signal, with a median of 120 nM and one signal in twenty below 7.0 nM, so weak values seen in few replicates may be background.